Chains of the proteins cited; added tags and fusions are not shown. Residues count along the entry.
UniProt P23416, 28-343, stated change not applied: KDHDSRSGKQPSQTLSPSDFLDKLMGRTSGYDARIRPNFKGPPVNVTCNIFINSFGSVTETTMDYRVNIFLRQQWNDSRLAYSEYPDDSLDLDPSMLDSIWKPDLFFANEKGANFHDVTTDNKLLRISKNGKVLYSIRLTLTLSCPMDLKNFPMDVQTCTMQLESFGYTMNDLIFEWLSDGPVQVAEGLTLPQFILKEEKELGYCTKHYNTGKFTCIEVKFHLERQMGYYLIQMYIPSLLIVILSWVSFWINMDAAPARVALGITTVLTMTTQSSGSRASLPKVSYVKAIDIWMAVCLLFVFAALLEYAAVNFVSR
UniProt P23416, 409-452, stated change not applied: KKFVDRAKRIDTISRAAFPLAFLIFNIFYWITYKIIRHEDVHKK
UniProt P48167, 23-355, stated change not applied: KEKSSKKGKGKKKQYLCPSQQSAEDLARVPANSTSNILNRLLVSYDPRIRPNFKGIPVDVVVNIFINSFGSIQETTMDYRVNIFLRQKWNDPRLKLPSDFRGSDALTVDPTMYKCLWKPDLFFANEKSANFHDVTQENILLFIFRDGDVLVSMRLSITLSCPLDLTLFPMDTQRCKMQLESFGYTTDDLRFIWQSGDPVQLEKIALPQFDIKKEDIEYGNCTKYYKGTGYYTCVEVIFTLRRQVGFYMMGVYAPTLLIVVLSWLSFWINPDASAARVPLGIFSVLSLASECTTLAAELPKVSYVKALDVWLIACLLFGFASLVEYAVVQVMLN
UniProt P48167, 400-497, stated change not applied: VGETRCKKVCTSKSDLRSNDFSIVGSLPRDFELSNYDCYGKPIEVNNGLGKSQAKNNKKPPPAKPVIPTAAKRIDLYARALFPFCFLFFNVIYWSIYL
UniProt P48167, 36-355, stated change not applied: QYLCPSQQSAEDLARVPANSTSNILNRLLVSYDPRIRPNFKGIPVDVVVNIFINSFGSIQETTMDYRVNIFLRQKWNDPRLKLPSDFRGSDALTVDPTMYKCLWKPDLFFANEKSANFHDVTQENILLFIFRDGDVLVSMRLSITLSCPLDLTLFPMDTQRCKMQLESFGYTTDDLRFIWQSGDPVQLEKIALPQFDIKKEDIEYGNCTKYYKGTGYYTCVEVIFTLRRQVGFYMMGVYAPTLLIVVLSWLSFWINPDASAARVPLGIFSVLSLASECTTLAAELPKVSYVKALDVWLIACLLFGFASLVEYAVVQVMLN
UniProt P48167, 23-355 K23D/K25D/K28D/K29D/K31D/K33D/K34D/K35D: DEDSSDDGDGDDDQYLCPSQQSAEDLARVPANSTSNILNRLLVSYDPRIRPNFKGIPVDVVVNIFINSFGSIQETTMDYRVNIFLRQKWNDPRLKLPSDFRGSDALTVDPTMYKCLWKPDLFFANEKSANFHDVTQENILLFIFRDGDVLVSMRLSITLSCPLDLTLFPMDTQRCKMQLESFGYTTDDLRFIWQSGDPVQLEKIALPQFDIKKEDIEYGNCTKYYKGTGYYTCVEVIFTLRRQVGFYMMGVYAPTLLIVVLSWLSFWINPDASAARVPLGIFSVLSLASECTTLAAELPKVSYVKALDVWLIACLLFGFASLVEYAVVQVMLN

According to publication doi:10.1101/2024.10.17.618879v1 (biorxiv, 2024):

Assays:
Assay in all cases: whole-cell patch clamp, Hill fit
Assay type in all cases: cell-based
[1] = target: α2β heteromeric GlyR (α2β GlyR) (Homo sapiens, UniProt P23416+P48167, P23416:DEL344-408/P48167:DEL356-399)
[2] = target: α2β heteromeric GlyR (α2β GlyR) (Homo sapiens, UniProt P23416+P48167, P23416:DEL344-408/P48167:DEL23-35/P48167:DEL356-399)
[3] = target: α2β heteromeric GlyR (α2β GlyR) (Homo sapiens, UniProt P23416+P48167, P23416:DEL344-408/P48167:DEL356-399/P48167:K23D/P48167:K25D/P48167:K28D/P48167:K29D/P48167:K31D/P48167:K33D/P48167:K34D/P48167:K35D)

`NCC(=O)O` [glycine] was tested, and the EC50 [1] was 60 ± 3 µM, the EC50 [2] was 59 ± 3 µM and the EC50 [3] was 51 ± 3 µM.
